From US20240208964A1, “PYRIDOPYRIMIDINES AND METHODS OF THEIR USE” (PYRIDOPYRIMIDINES AND METHODS OF THEIR USE, priority 2020, published 2024)

Sequences of proteins named here, by UniProt entry; tags and fusion partners are left off.
UniProt Q9Y2I7, whole entry S696N/L932S/Q995L/T998S/S1033A/Q1183K: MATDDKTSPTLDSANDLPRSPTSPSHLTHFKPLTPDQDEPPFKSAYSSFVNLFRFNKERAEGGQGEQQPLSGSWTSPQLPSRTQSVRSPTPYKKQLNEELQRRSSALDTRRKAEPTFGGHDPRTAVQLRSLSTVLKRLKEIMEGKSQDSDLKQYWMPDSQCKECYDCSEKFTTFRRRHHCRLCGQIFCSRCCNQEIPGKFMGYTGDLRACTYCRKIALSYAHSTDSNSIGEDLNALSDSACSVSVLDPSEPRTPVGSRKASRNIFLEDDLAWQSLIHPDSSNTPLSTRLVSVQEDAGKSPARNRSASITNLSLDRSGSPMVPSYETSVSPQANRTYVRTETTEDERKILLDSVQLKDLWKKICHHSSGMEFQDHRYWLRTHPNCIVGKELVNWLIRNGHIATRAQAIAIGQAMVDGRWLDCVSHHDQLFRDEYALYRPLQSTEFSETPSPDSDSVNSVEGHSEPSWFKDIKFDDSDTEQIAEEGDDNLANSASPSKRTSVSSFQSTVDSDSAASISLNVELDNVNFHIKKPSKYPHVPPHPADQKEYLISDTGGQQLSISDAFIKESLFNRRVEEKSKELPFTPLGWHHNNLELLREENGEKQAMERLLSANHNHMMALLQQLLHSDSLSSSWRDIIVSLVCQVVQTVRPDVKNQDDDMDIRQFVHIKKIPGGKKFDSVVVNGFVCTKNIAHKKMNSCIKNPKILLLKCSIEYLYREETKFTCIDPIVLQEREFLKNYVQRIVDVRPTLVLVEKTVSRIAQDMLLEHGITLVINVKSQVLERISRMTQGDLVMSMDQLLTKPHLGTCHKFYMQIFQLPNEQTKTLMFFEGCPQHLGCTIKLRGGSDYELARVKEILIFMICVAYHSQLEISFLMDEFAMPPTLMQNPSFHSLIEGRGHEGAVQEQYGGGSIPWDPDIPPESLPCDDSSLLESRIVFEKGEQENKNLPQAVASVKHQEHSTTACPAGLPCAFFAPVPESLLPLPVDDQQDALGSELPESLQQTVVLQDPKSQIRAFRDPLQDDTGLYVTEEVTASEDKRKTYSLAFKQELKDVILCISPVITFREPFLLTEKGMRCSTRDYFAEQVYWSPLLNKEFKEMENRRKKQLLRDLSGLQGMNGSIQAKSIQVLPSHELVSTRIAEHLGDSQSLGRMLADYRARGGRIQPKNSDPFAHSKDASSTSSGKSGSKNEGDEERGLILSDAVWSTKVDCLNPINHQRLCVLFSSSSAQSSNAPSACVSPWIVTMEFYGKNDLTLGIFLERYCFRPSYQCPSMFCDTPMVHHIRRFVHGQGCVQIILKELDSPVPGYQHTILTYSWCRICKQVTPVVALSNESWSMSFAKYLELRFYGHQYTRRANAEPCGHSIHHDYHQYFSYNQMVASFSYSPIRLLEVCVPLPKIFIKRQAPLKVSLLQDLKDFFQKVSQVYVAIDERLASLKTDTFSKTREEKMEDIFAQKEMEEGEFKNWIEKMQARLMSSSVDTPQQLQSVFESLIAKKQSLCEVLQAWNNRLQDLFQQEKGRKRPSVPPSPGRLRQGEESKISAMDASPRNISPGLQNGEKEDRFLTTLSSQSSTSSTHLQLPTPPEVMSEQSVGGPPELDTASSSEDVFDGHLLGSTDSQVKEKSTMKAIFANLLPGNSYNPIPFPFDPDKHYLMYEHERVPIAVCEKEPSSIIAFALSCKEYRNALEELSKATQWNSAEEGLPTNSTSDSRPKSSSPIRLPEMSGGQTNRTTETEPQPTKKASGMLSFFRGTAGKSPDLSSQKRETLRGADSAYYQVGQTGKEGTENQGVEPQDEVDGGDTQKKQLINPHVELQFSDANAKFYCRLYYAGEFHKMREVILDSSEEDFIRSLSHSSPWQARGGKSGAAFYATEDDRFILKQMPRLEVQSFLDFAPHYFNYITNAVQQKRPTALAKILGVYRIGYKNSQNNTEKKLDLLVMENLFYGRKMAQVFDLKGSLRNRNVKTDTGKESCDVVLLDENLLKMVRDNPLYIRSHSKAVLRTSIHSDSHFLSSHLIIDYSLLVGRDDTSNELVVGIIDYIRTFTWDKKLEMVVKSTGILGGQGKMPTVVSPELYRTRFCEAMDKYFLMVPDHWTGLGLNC

Biological target: full-length human PIKFYVE (GST-PIKFYVE) (Homo sapiens (Human), UniProt Q9Y2I7, L932S/Q1183K/Q995L/S1033A/S696N/T998S)
Test: PIKfyve biochemical assay (ADP-Glo Kinase assay, Carna Biosciences)
Conditions: read-out: hPIKfyve IC50

- IC50: 100 to 1000 nM
Compound: Brc1cnc2c(N3CCOCC3)nc(-n3ccc(-c4ccccc4)n3)nc2c1
